Data from PMC13012646.

Target: human kallikrein 7 variant hK7-2.7 (human) (UniProt P49862)

Substance: bovine pancreatic trypsin inhibitor (from UniProt P00974 36-93) (natural protein)
- inhibition of Aβ8 FRET reporter cleavage (5 nM protease, 200 nM substrate, 37°C): > 30 µM
